Data: PubChem BioAssay (NCI)
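Compound exposure: 48 hours, 5 concentrations, 96-well plates. The concentration for 50% growth inhibition is given as GI50. The concentration for full growth arrest is given as TGI.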

Legend:
Assay in all cases: NCI anticancer screen, dose series, 48 h
[1] = system: ACHN renal
[2] = system: EKVX NSCLC
[3] = system: MALME-3M melanoma
[4] = system: HOP-62 NSCLC
[5] = system: HOP-92 NSCLC
[6] = system: SW-620 colon
[7] = system: SF-295 CNS
[8] = system: KM12 colon
[9] = system: RPMI-8226 leukemia
[10] = system: HCC-2998 colon
[11] = system: LXFL 529 NSCLC
[12] = system: KM20L2 colon
[13] = system: SN12C renal
[14] = system: UO-31 renal
[15] = system: TK-10 renal
[16] = system: SR leukemia
[17] = system: HCT-15 colon
[18] = system: OVCAR-8 ovarian
[19] = system: U251 CNS
[20] = system: SK-OV-3 ovarian
[21] = system: SNB-75 CNS
[22] = system: HCT-116 colon
[23] = system: SF-268 CNS
[24] = system: RXF 393 renal
[25] = system: HL-60(TB) leukemia
[26] = system: NCI-H23 lung
[27] = system: COLO 205 colon
[28] = system: HT29 colon
[29] = system: UACC-257 melanoma
[30] = system: DLD-1 colon
[31] = system: SK-MEL-2 melanoma
[32] = system: UACC-62 melanoma
[33] = system: OVCAR-3 ovarian
[34] = system: DMS 114 small cell lung
[35] = system: NCI-H460 lung
[36] = system: NCI-H226 lung
[37] = system: SK-MEL-5 melanoma
[38] = system: NCI-H322M lung
[39] = system: DMS 273 small cell lung
[40] = system: SK-MEL-28 melanoma
[41] = system: M14 melanoma
[42] = system: IGROV1 ovarian
[43] = system: LOX IMVI melanoma
[44] = system: OVCAR-5 ovarian

In the case of `CC1=CC(=O)OC2(C1)CC1CCC2CN1C` (stereo not drawn), the GI50 [1] is reported as over 100 µM, the TGI [1] is reported as over 100 µM and the GI50 [2] is reported as over 100 µM. For the same compound, the TGI [2] was over 100 µM, the GI50 [3] was over 100 µM and the TGI [3] was over 100 µM. For the same compound, the GI50 [4] was over 100 µM, the TGI [4] was over 100 µM and the GI50 [5] was over 100 µM. It also gave a TGI [5] of over 100 µM, a GI50 [6] of over 100 µM and a TGI [6] of over 100 µM. It also gave a GI50 [7] of over 100 µM, a TGI [7] of over 100 µM and a GI50 [8] of over 100 µM. The TGI [8] was over 100 µM, the GI50 [9] was over 100 µM and the TGI [9] was over 100 µM. It also gave a GI50 [10] of over 100 µM, a TGI [10] of over 100 µM and a GI50 [11] of over 100 µM. For the same compound, the TGI [11] was over 100 µM, the GI50 [12] was over 100 µM and the TGI [12] was over 100 µM. For the same compound, the GI50 [13] was over 100 µM, the TGI [13] was over 100 µM and the GI50 [14] was over 100 µM. It also gave a TGI [14] of over 100 µM, a GI50 [15] of over 100 µM and a TGI [15] of over 100 µM. The GI50 [16] was over 100 µM, the TGI [16] was over 100 µM and the GI50 [17] was over 100 µM. The TGI [17] was over 100 µM, the GI50 [18] was over 100 µM and the TGI [18] was over 100 µM. It also gave a GI50 [19] of over 100 µM, a TGI [19] of over 100 µM and a GI50 [20] of over 100 µM. It also gave a TGI [20] of over 100 µM, a GI50 [21] of over 100 µM and a TGI [21] of over 100 µM. It also gave a GI50 [22] of over 100 µM, a TGI [22] of over 100 µM and a GI50 [23] of over 100 µM. It also gave a TGI [23] of over 100 µM, a GI50 [24] of 65.3 µM and a TGI [24] of over 100 µM. It also gave a GI50 [25] of over 100 µM, a TGI [25] of over 100 µM and a GI50 [26] of over 100 µM. The TGI [26] was over 100 µM, the GI50 [27] was over 100 µM and the TGI [27] was over 100 µM. For the same compound, the GI50 [28] was over 100 µM, the TGI [28] was over 100 µM and the GI50 [29] was over 100 µM. For the same compound, the TGI [29] was over 100 µM, the GI50 [30] was over 100 µM and the TGI [30] was over 100 µM. The GI50 [31] was over 100 µM, the TGI [31] was over 100 µM and the GI50 [32] was over 100 µM. It also gave a TGI [32] of over 100 µM, a GI50 [33] of over 100 µM and a TGI [33] of over 100 µM. It also gave a GI50 [34] of over 100 µM, a TGI [34] of over 100 µM and a GI50 [35] of over 100 µM. It also gave a TGI [35] of over 100 µM, a GI50 [36] of over 100 µM and a TGI [36] of over 100 µM. The GI50 [37] was over 100 µM, the TGI [37] was over 100 µM and the GI50 [38] was over 100 µM. For the same compound, the TGI [38] was over 100 µM, the GI50 [39] was over 100 µM and the TGI [39] was over 100 µM. For the same compound, the GI50 [40] was over 100 µM, the TGI [40] was over 100 µM and the GI50 [41] was over 100 µM. The TGI [41] was over 100 µM, the GI50 [42] was over 100 µM and the TGI [42] was over 100 µM. For the same compound, the GI50 [43] was over 100 µM, the TGI [43] was over 100 µM and the GI50 [44] was over 100 µM. It also gave a TGI [44] of over 100 µM.
